The list shows a part of the results, in another mix than the full data. Active and inactive are the calls of the source.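 How the source made its calls: active means calcium fluorescence ratio, averaged over duplicates, at least 3 SD of the buffer-well ratio, meaning a nonspecific response in receptor-free cells; inactive means the rest.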
Test: calcium response in parental HEK293 cells, primary screen, counter-screen for MrgX1 allosteric activator project, cell-based, Fluo-4 calcium flux, duplicate (AID 624114)
Details: Fluo-4 fluorescence ratio, at 10 µM

Structure (SMILES) | fluorescence ratio F(max-min)/F0
CN(C)C1(CNC(=O)c2ccc(Cl)c(S(N)(=O)=O)c2)CCCCC1 | inactive: 0
